Results: patent US20060258003A1, “Culture medium composition, culture method, and myoblasts obtained, and their uses” (CELOGOS, priority 2002, published 2006)

System: rat muscle cells
Details: 2 days culture

growth of muscle cells (0.5 μM): very inhibited in their growth
Compound: CC[C@H](C)C(=O)O[C@H]1C[C@@H](C)C=C2C=C[C@H](C)[C@H](CC[C@@H]3C[C@@H](O)CC(=O)O3)[C@H]21 [Lovastatin]
specificity of toxicity, muscle cells versus adipocyte cells (0-1 μM): preferential toxicity of Lovastatin for the muscle cells
